Amino acid sequences for entries named in this document (tags omitted).
UniProt Q9HD36, whole entry: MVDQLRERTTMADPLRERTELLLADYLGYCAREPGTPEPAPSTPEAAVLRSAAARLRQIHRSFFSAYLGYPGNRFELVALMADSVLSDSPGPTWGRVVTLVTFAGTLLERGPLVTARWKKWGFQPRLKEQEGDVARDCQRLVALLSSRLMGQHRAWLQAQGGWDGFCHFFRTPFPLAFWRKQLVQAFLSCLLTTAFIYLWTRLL

Only a part is listed here, and it is no random draw. Active and inactive are the calls of the source. Rule as the data show it: active = inhibition above about 40%.
These compounds were tested against Bcl-2-like protein 10 (Homo sapiens) (UniProt Q9HD36) (assay: Bcl-B and Bim peptide interaction disruptors – biochemical, multiplexed, human Bcl-2 family, primary screen (AID 951;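 also: 0% = tracer peptide without compound and 100% = reference inhibitor peptide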)). Details: bead-based flow cytometry, Bim peptide-Bcl-B binding; at 10 µM; active compounds read high.
With `Fc1ccccc1NC1CCN(Cc2ccccc2)CC1` the inhibition was inactive: -1%.
`CN(C)c1ccc(C(=O)NCC2(N3CCCCC3)CCCCC2)cc1` was tested, and the inhibition was inactive: -3%.
For `CCN1CCC(Nc2cccc(F)c2)CC1`, the inhibition was inactive: -5%.
`CC(C)(C)OC(=O)N1CCC(Nc2ccccc2)CC1` was tested, and the inhibition was inactive: -10%.
For `CCOc1ncccc1C(=O)NCC1(N2CCOCC2)CCCCC1`, the inhibition was inactive: -2%.
`CCC(CO)(C(=O)OC1CN2CCC1CC2)c1ccccc1` (stereo not given) was tested, and the inhibition was inactive: -6%.
With `COc1cc(OC)cc(C(=O)NCC2(N3CCOCC3)CCCCC2)c1` the inhibition was inactive: -1%.
With `COc1ccc(C(=O)NCC2(N3CCOCC3)CCCCC2)cc1OC` the inhibition was inactive: -2%.
`O=C(OC1CN2CCC1CC2)C1c2ccccc2C=Cc2ccccc21` (stereo not given) was tested, and the inhibition was inactive: -2%.
In the case of `N/C(=N\O)c1c(N)no[n+]1[O-]`, the inhibition was inactive: -2%.
In the case of `N#Cc1ccc(C(=O)NCC2(N3CCCCC3)CCCCC2)cc1`, the inhibition was inactive: -4%.
With `c1ccc(CN2CCC(Nc3ccccc3)CC2)cc1` the inhibition was inactive: -6%.
In the case of `O=C(NCC1(N2CCCCC2)CCCCC1)c1cccc([N+](=O)[O-])c1`, the inhibition was inactive: 1%.
For `N#CC1(Nc2ccccc2)CCN(CCc2ccccc2)CC1`, the inhibition was inactive: -2%.
With `COc1ccc(NC2CCN(C(=O)OC(C)(C)C)CC2)cc1` the inhibition was inactive: -2%.
For `CN1CCN(CCOC(=O)C(O)(c2ccccc2)c2ccccc2)CC1`, the inhibition was inactive: -6%.
`O=C(NCC1(N2CCOCC2)CCCCC1)c1cc(=O)[nH]c2ccccc12` was tested, and the inhibition was inactive: -3%.
With `CN(C)c1cccc(C(=O)NCC2(N3CCCCC3)CCCCC2)c1` the inhibition was inactive: 3%.
In the case of `COc1ccc(CN(CCCl)CCCl)cc1Cl`, the inhibition was inactive: -2%.
With `CC(C)c1ccc(NC2CCN(C(=O)OC(C)(C)C)CC2)cc1` the inhibition was inactive: 0%.
In the case of `COc1ccc(C(=O)NCC2(N3CCCCC3)CCCCC2)c(OC)c1OC`, the inhibition was inactive: 0%.
For `CCOC(=O)N1CCC(Nc2ccc(OC)cc2)CC1`, the inhibition was inactive: -7%.
With `O=C(OC1CN2CCC1CC2)C1c2ccccc2Oc2ccccc21` (stereo not given) the inhibition was inactive: 0%.
With `O=C(NCC1(N2CCOCC2)CCCCC1)c1cc2ccccc2o1` the inhibition was inactive: 6%.
`COc1ccc(NC2CCN(CCc3ccccc3)CC2)c(OC)c1` was tested, and the inhibition was inactive: -9%.

Source: PubChem BioAssay AID951 (NMMLSC, 2007)
